The chains behind the UniProt entries cited, without tags or fusion partners.
UniProt B3G3I7, entry or part of it: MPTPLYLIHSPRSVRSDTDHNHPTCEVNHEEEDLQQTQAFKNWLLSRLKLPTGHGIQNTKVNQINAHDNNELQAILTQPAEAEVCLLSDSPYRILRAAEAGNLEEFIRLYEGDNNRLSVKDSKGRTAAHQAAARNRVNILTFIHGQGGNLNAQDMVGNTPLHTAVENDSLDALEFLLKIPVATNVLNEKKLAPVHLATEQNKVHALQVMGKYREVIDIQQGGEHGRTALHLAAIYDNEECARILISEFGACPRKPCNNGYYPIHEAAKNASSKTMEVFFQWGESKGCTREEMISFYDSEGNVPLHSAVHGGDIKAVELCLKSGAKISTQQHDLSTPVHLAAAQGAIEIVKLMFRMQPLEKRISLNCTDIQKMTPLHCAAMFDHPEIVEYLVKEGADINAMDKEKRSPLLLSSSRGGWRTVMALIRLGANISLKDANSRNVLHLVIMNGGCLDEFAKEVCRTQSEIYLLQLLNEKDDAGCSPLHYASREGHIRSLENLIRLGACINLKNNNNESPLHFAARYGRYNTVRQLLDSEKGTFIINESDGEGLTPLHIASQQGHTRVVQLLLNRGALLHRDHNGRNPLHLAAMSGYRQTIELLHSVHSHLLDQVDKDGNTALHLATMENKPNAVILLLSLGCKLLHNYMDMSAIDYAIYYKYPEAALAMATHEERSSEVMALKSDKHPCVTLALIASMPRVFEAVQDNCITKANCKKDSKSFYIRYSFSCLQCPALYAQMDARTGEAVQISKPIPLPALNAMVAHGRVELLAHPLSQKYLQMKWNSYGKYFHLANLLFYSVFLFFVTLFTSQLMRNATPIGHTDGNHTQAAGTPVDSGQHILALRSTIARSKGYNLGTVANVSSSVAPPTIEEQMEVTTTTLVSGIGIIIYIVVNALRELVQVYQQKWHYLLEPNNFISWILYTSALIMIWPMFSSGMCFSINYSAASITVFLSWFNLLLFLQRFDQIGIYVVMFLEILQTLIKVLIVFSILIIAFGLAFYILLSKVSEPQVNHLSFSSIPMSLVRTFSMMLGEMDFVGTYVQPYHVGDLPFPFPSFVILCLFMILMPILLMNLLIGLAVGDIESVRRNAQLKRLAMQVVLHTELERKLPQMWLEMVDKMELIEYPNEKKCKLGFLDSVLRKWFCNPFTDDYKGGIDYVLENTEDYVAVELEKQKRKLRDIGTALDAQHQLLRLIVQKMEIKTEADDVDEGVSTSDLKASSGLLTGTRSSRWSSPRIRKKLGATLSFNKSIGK

In publication PMC5068967, “Nucleophile sensitivity of Drosophila TRPA1 underlies light-induced feeding deterrence” (eLife, 2016):

Experiments:
[1] = target: agTRPA1(A) (Anopheles gambiae, UniProt B3G3I7); assay: Two-electrode voltage clamp of Xenopus oocytes expressing agTRPA1(A); type: cell-based
Method: (§1) TRPA1-dependent currents in Xenopus laevis oocytes induced by application of chemicals and light illumination were recorded by the two-electrode voltage clamping technique (TEVC), as described previously ([Kang et al., 2010]; [Kang et al., 2012]). Briefly, ovaries were surgically prepared and subjected to digestion with 1.5 mg/ml collagenase for 1.5 hr. Subsequently, the follicular layer of the oocytes was manually removed. One day after microinjection of 50 nl of TrpA1 cRNA, oocytes were electrophysiologically examined while perfused with the recording solution (96 mM NaCl, 1 mM KCl, 1 mM MgCl2, 5 mM HEPES, pH 7.6). For UV illumination, the optical fiber terminal was mounted above the cell at a minimal distance to achieve the highest possible intensity (Figure 1—figure supplement 1c). H2O2 (HP1002, GeorgiaChem, GA, USA) and DTT (43819 Sigma Aldrich, MO, USA) solutions were freshly prepared before use. For UV experiments, the initial voltage was −60 mV, and it was then changed in periods of 300 ms from −60 to +60 mV per second. For H2O2 and DTT responses, the voltage was held constant at −60 mV during recording. […] Data from dose-dependence experiments were normalized with respect to 0.1 mM NMM currents recorded from the same cells, and fitted to the Hill equation using Sigmaplot12.

[2] = target: T1, Drosophila TRPA1(A) (Drosophila melanogaster, UniProt Q7Z020); assay: Two-electrode voltage clamp of Xenopus oocytes expressing Drosophila TRPA1(A); type: cell-based
T1 sequence (Q7Z020 1-1197): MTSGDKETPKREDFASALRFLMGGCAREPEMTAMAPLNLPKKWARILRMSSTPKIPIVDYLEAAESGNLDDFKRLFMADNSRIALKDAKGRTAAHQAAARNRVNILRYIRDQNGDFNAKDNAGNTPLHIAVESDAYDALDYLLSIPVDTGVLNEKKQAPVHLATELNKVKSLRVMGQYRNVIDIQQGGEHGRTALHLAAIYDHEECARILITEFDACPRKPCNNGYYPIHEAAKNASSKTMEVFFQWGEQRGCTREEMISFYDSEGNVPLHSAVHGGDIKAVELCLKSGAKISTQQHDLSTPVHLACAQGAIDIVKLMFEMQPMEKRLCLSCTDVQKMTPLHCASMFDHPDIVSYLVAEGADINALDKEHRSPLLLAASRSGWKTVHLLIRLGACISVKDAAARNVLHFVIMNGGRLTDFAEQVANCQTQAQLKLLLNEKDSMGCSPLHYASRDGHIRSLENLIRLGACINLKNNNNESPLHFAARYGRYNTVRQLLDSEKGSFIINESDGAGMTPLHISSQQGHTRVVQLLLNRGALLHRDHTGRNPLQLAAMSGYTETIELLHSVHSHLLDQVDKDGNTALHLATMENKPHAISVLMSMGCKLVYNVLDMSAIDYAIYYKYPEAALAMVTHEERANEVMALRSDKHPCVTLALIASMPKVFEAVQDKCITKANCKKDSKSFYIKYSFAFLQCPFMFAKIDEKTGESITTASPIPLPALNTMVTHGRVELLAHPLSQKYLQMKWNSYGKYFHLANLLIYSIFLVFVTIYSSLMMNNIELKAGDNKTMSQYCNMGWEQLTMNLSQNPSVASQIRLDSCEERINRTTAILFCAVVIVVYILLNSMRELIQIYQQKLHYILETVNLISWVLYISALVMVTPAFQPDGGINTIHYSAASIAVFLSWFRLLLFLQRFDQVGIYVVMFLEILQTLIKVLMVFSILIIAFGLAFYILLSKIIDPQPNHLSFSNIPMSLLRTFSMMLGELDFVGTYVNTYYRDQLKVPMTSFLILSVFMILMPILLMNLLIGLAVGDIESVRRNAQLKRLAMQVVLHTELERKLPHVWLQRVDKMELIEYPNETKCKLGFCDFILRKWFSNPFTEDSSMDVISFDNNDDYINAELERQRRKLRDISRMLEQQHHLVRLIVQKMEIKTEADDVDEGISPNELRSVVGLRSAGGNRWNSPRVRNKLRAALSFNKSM
Method: as §1

Question: `O[C@@H](CS)[C@@H](O)CS` (racemic) [DTT, dithiothreitol] was tested. Which “NMM-normalized peak current amplitude relative to Drosophila TRPA1(A)” value [1] did it give?
Answer: The value was ~ 10 times.

Question: What about the EC50 [2] of the same molecule?
Answer: Its EC50 is about 92.8 µM.

Question: And the Emax at 10000 µM ([2]; read-out: average maximal current amplitude relative to NMM responses)?
Answer: The Emax at 10000 µM was about 10%.
